Consider three molecules from publication PMC9667534, “Insertion of Nanoluc into the Extracellular Loops as a Complementary Method To Establish BRET-Based Binding Assays for GPCRs” (ACS Pharmacology & Translational Science, 2022).

Sequences of proteins named here, by UniProt entry; tags and fusion partners are left off. A change or cut given only in a name is not applied to a line headed by its entry.
UniProt P11229: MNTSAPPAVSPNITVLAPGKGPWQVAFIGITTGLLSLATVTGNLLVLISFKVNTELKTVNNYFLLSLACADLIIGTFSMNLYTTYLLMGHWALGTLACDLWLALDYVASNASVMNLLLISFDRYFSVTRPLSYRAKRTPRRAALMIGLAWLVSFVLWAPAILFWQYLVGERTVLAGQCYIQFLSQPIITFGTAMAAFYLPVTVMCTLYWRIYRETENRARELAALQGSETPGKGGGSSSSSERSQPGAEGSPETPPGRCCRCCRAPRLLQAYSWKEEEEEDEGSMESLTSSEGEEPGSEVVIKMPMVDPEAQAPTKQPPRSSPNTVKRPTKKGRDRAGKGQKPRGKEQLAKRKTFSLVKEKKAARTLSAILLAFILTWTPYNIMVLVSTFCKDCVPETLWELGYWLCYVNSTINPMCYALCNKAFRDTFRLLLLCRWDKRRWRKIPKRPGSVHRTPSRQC
UniProt P25929, whole entry: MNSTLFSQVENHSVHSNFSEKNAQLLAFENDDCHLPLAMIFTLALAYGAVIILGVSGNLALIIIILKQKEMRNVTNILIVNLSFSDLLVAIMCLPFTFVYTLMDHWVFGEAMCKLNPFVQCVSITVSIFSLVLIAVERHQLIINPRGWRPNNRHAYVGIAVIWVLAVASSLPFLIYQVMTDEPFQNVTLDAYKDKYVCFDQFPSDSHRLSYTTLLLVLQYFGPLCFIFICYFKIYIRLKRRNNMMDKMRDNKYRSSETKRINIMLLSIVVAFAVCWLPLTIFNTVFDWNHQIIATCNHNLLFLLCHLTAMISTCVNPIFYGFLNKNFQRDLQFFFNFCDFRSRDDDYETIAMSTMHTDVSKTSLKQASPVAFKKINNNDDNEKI

One assay has as its target Nluc-M1R(G176) (Homo sapiens, UniProt P11229). Put plainly: biochemical.
The target in the next assay is M1R. The conditions noted are these: different expression systems, ref 54-67 (per cell); cited from earlier work.
Another assay addresses Nluc-Y1R(Q291) (Homo sapiens, UniProt P25929). Put plainly: BRET competition binding with fluorescent ligand 1. The conditions noted are these: 1 c = 0.5 nM.

pKi: −log10 of the molar value.

For orientation: pKi means the negative decadic logarithm of the Ki, by convention in mol/L. A low value points to a large Ki.

Turning to `C=CC[N@@+]12CC[C@@]34c5ccccc5N5/C=C6/[C@H]7C[C@H]8[C@@]9(CC[N@@+]8(CC=C)C/C7=C/CO)c7ccccc7N(/C=C(/[C@@H](C[C@@H]31)/C(=C\CO)C2)[C@H]54)[C@@H]69` [alcuronium, Alcuronium], the negative logarithm of the Ki (pKi) on Nluc-M1R(G176) is 4.99.

N-methyl scopolamine [NMS]: the “reference values (literature)” value on M1R was 9.49–10.22[55],[62],[66].

Regarding porcine neuropeptide Y [pNPY], the “displacement of fluorescent tracer 1” value at Nluc-Y1R(Q291) is “not able to displace the fluorescent tracer”.
